In patent US20120302748A1, “TREATMENT OR PROPHYLAXIS OF PROLIFERATIVE CONDITIONS” (THE UNIVERSITY COURT OF THE UNIVERSITY OF DUNDEE, priority 2009, published 2012):

What was measured:
CHO/CYP1A1 cells = experiment: Cytotoxicity in CHO/CYP1A1 cells (MTS assay); conditions: 72 h exposure; for IC50 ratio 72 h (CHO / CHO/CYP1A1): IC50 in normal CHO divided by IC50 in CYP1A1 transfected CHO
CHO/CYP1B1 cells = experiment: Cytotoxicity in CHO/CYP1B1 cells (MTS assay); conditions: 72 h exposure; for IC50 ratio 72 h (CHO / CHO/CYP1B1): IC50 in normal CHO divided by IC50 in CYP1B1 transfected CHO
CHO cells = experiment: Cytotoxicity in wild-type CHO cells (MTS assay); conditions: read-out: Cytotoxicity (IC50) CHO 72 h; 72 h exposure

| Molecule | IC50 ratio 72 h (CHO / CHO/CYP1A1) (CHO/CYP1A1 cells) | IC50 ratio 72 h (CHO / CHO/CYP1B1) (CHO/CYP1B1 cells) | IC50 (CHO cells) | IC50 (CHO/CYP1A1 cells; read-out: Cytotoxicity (IC50) CHO/CYP1A1 72 h) | IC50 (CHO/CYP1B1 cells; read-out: Cytotoxicity (IC50) CHO/CYP1B1 72 h) |
| --- | --- | --- | --- | --- | --- |
| O=P(O)(NCCCl)NCCCl [Cl-IPM, N,N-bis(2-chloro-ethyl)phosphoramide, reference compound] | 1.2 | <1 | – | – | – |
| N,N-bis(2-bromo-ethyl)phosphoramide | 1 | 1.25 | 5 nM | 5 nM | 4 nM |
